PubChem BioAssay AID746 (The Scripps Research Institute Molecular Screening Center, 2007)
This is a selection; strong and weak results do not stand in their true shares. Activity calls are given as the source filed them. Cut-off read from the data, not from the text of the source: active = inhibition above about 17%; inactive = the rest.

Protein sequences, listed by entry. Tags and fused reporters are not part of them.
UniProt P53779, whole entry: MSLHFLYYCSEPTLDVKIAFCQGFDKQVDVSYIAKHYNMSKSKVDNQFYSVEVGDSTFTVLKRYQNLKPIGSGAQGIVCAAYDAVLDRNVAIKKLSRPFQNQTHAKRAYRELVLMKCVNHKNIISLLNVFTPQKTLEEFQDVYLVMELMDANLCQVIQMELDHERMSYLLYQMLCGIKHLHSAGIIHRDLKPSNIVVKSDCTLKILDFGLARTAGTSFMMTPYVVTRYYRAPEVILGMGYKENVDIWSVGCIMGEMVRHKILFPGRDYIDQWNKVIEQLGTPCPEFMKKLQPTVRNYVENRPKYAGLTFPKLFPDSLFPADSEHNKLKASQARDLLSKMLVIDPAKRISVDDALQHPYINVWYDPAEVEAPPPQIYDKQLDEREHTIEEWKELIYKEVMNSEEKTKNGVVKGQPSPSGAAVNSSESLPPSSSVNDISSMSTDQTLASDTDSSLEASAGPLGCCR

Each molecule was assayed against Mitogen-activated protein kinase 10 (Homo sapiens) (UniProt P53779) (assay: JNK3 kinase activity inhibitors, primary screen, biochemical, human, purified enzyme (AID 746;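 note: 0% = DMSO and 100% = reference inhibitor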)). Conditions: HTS, at 8 µM, active compounds read high.

| Compound | inhibition |
| --- | --- |
| CP(=O)(Nc1ccccc1F)Oc1ccccc1 (stereo unspecified) | inactive: 2.9% |
| CN(C)CCOC(=O)C(O)(c1ccccc1)C1CCCCC1 (stereo unspecified) | inactive: -8.48% |
| Cc1ccccc1NP(C)(=O)Nc1ccccc1C | inactive: 3.44% |
| CCOP(C)(=S)SCC(=O)NC(C)(CC)C(=O)O (stereo unspecified) | inactive: 0.53% |
| CCN(CC)CC(O)COC(=O)C(O)(c1ccccc1)C1CCCCC1 (stereo unspecified) | inactive: -3.77% |
| COc1ccccc1OP(C)(=O)Nc1c(C)n(C)n(-c2ccccc2)c1=O (stereo unspecified) | inactive: -2.13% |
| CP(=O)(Oc1ccccc1)N1CCOC1=O (stereo unspecified) | inactive: 3.48% |
| Cc1nc2ccc3ccccc3c2o1.O=[N+]([O-])c1cc([N+](=O)[O-])c(O)c([N+](=O)[O-])c1 | inactive: -13.5% |
| COc1ccccc1OP(C)(=O)Nc1ccc(C)c(C)c1 (stereo unspecified) | inactive: 0.69% |
| CP(=O)(Nc1ccccn1)Oc1ccccc1 (stereo unspecified) | inactive: 0.84% |
| COc1ccccc1OP(C)(=O)Nc1ccc(C)cc1 (stereo unspecified) | inactive: 5.42% |
| Cc1ccc(NP(C)(=O)Oc2ccccc2)c(C)c1 (stereo unspecified) | inactive: -9.71% |
| CP(=S)(Nn1cnnc1)Oc1ccccc1 (stereo unspecified) | inactive: -1.65% |
| CCOP(C)(=S)SCC(=O)NC(C)C(=O)O (stereo unspecified) | inactive: -6.22% |
| Cc1nc2ccc3ccccc3c2s1.O=[N+]([O-])c1cc([N+](=O)[O-])c(O)c([N+](=O)[O-])c1 | inactive: -2.38% |
| Cc1ccc(C)c(NP(C)(=O)Oc2ccccc2)c1 (stereo unspecified) | inactive: -3.88% |
